Results published in PubChem BioAssay AID1471 (National Center for Advancing Translational Sciences (NCATS), 2008).
Several values for one entry are separate records, joined by “and”; a condition that tells them apart may be missing. Equal entries are not always repeated. The list shows a part of the results, in another mix than the full data. Activity calls are given as the source filed them. Calls follow the shape of the dose curve; as a rule, active = well fitted activation curve with a large enough effect; inconclusive = small, poorly fitted or top-dose-only effect; inactive = no such curve, though single readings can be large or run the other way.

Test: qHTS Multiplex Assay to Identify Dual Action Probes in a Cell Model of Huntington: Cytoprotection (ATP);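 also: toxic huntingtin expression switched on by the ecdysone agonist tebufenozide; % of control where 0% means no effect; nearly all actives have a fitted effect of over 45% in size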
Details: PC12 HTT-Q103 induced, ATP luminescence, 40 h; at 10 µM (top of the series) unless noted
Excerpt: NIH Chemical Genomics Center [NCGC]
NIH Molecular Libraries Probe Production centers Network [MLPCN]
Assay Submitter (PI): Wei Zheng
Huntington's disease is a neurodegenerative disorder caused by a trinucleotide repeat expansion in Exon 1 of the Huntingtin gene. The CAG trinucleotide encodes glutamine and polyglutamine expansions cause cell death in selective areas of the brain. Huntington polyglutamine repeats have the tendency to form aggregates which are observable in later stages of the disease. The exact nature of the aggregates, whether toxic, protective, or insignificant, is unclear.
A stable PC12 cell line containing a gene fusion of Exon 1 of the Huntingtin gene linked to GFP under the control of the inducible ecdysone promoter were used as the cell-based model of Huntington Disease for high throughput screening. Exon 1 of the Huntingtin gene contained an expansion of 103 polyglutamines (Q103) which, when expressed, caused cell death and distinct, bright GFP aggregates. The amount of cell death and the size and intensity of GFP aggregates increased over time and induction level. The cell death were quantified with a measurement of ATP content in the cells. A maximal 40-50% of cell death was observed when the Huntington gene was induced in this cell line.
We optimized this assay in a homogeneous 1536 well format. A quantitative high throughput screen (qHTS) was conducted on the PC12 cells which were induced to express the toxic fusion construct. Small molecules which prevented cell death were identified by using a luminescent ATP quantification method (Perkin Elmer's ATPlite).
PC12 cells stably containing a construct with an ecdysone inducible promoter expressing GFP fused to the exon 1 of HTTQ103 (Huntington protein which containing a 103 ployglutamine expansion) were used.
NCGC Assay Protocol Summary:
Sequence, Parameter, Description
1, Reagent, 5 uL 1500 cells/well 1536 TC treated White clear bottom plate
2, Compound, 23 nL Tebufenozide inducer (100 nM final) to all columns
3, Compound, 23 nL 40 uM to 0.5 nM Libraries
5, Reagent, 5 ul ATPLite cell death assay reagent
6, Detector, 4 sec integration with a Viewlux Luminescent
Media consisted of phenol red free DMEM + 5% equine serum (Hyclone # SH30072.03 ), 5% supplemented Bovine Calf Serum (Hyclone # SH30074.03 ), 1x pen/strep, no G418
Control columns: 1 = DMSO, 2= 2 uM teb dilns (1:1), 4 = 100 nM Teb inducer. Sample columns received 100 nM Teb.

Structure (SMILES)	cytoprotection (ATP increase)
Cc1ccc2nc3c(c(C)c2c1)CC(C(Cl)Cl)S3 (stereo not drawn)	inactive: 27.6%
O=[As](O)(c1ccc(O)cc1)c1ccccc1O	inactive: 17.2%
C[As](=O)(O)c1cccc(C(=O)O)c1	inactive: 9.32%
COc1ccc(N/C(=N/P(=O)(N2CCOCC2)N2CCOCC2)N2CCOCC2)cc1	inactive: -25.1% [at 56.4 µM]
COc1cc(I)ccc1[As](=O)(O)O	inactive: -7.72%
NC(=O)Nc1cc([As](=O)(O)O)cc(I)c1O	inactive: 8.62%
COc1ccc2nc(NP(=O)(c3ccccc3)c3ccccc3)sc2c1	inactive: 6.72%
Cc1c2c(nc3ccccc13)SC(C(Cl)Cl)C2 (stereo not drawn)	inactive: 6.28%
O=C(OC1CN2CCC1CC2)C12CC3CC(CC(C3)C1)C2 (stereo not drawn)	inactive: -21.4% [at 0.074 µM]
CCC(C)N(CC(C)C)C(=S)SC(NC(C)=O)C(Cl)(Cl)Cl (stereo not drawn)	inactive: -20.4% [at 1.9 µM]
CCOC(=O)c1ccc(NC(=O)C(C)(CCl)SC)cc1 (stereo not drawn)	inactive: 22.1%
O=C(O)[C@@H](O)c1ccc([As](=O)(O)O)cc1	inactive: 14.2%
O=C(COc1ccccc1)OC1CN2CCC1CC2 (stereo not drawn)	inactive: 4.24%
COP1(=S)c2c(C)nn(CCC#N)c2N=C(c2ccc(F)cc2)N1C (stereo not drawn)	inactive: -11.4%
CN(N=O)C(=N)N[N+](=O)[O-]	inactive: -63.9% [at 56.4 µM]
Cc1cc(SC(NC=O)C(Cl)(Cl)Cl)ncn1 (stereo not drawn)	inactive: -16.7% [at 56.4 µM]
O=P(Nc1ccccn1)(c1cccc2ccccc12)c1cccc2ccccc12	inactive: -32.3% [at 56.4 µM]
O=[N+]([O-])c1ccc(Nc2ccc(Oc3ccc([N+](=O)[O-])cc3[N+](=O)[O-])cc2)c([N+](=O)[O-])c1	inactive: -16%
CCOC(=O)Nc1cccc([As](=O)(O)O)c1	inactive: -6.89%
Cc1cc(SC(NC(=O)c2ccccc2)C(Cl)(Cl)Cl)nc(C(C)C)n1 (stereo not drawn)	inactive: 10.2%
CCOC(=O)Nc1ccc([As](=O)(O)O)c(O)c1	inactive: -13.1%
O=C(O)CNc1ccc([As](=O)(O)O)cc1	inactive: 29%
O=[N+]([O-])c1cccc(NC2=NCC(CBr)S2)c1 (stereo not drawn)	inactive: -8.21%
O=[N+]([O-])c1ncn(CCn2ncnc2[N+](=O)[O-])n1	inactive: -1.33% [at 56.4 µM]

Structure (SMILES)	cytoprotection (ATP increase)
CC(C)(C)C(=O)NC(Sc1ccncn1)C(Cl)(Cl)Cl (stereo not drawn)	inactive: -3.29%
O=C(Nc1cc([As](=O)(O)O)ccc1O)c1ccccc1	inactive: 23.9%
CN(C(=O)Cc1ccccc1)[C@@H]1CC[C@@]2(CCCO2)C[C@H]1N1CCCC1	inactive: -13.2% [at 1.9 µM]
CC(=O)C1=CCCC2CCC1N2 (stereo not drawn)	inactive: -1.19% [at 56.4 µM] and inactive: -7.5% [at 56.4 µM]
CC1CCN(C(=O)Oc2c(Cl)cc(Cl)c3cccnc23)CC1	inactive: -23.5% [at 56.4 µM]
O=C(CO)Nc1ccc([As](=O)(O)O)cc1	inactive: 8.07%
CC(C)=N/N=C(\N)N[N+](=O)[O-]	inactive: -0.022%
CCN(/C(=N/P(=O)(N1CCOCC1)N1CCOCC1)N1CCOCC1)c1ccc(OC)cc1	inactive: -29.6% [at 56.4 µM]
C[N+]1=C2C=CC=CC=C2SC12C([N+](=O)[O-])=CC([N+](=O)[O-])=C[C-]2[N+](=O)[O-] (stereo not drawn)	inactive: -48.7%
Nc1ccc([As](=O)(O)c2ccc(N)cc2)cc1	inactive: 8.84%
O=[N+]([O-])c1cc([N+](=O)[O-])c(CCNc2ccccc2)c([N+](=O)[O-])c1	inactive: -26.7% [at 56.4 µM]
CCc1nc2c(n1)c1c(non1O)c1c2no[n+]1[O-]	inactive: -28.6% [at 56.4 µM]
Cc1ccc(NP(=O)(Oc2ccccc2)Oc2ccccc2)nc1	inactive: -2.73% [at 56.4 µM]
CC(=O)N1C2C3N(C(C)=O)C1C1N(C(C)=O)C(C(N1C(C)=O)N3C(C)=O)N2C(C)=O	inactive: 6.6% [at 56.4 µM]
O=[N+]([O-])c1cccc2n[nH]nc12	inactive: -7.42% [at 56.4 µM]
COc1ccc(C2=NCC(CBr)S2)cc1 (stereo not drawn)	inactive: -21.3% [at 56.4 µM]
NCC[C@@H](N)CSP(=O)(O)O	inactive: -5.35%
Cc1c2non([O-])c-2c(C)[n+](=O)[n+]1[O-]	inactive: -114% [at 56.4 µM]
O=C(NC(Sc1ccncn1)C(Cl)(Cl)Cl)c1ccccc1 (stereo not drawn)	inactive: -10.5%
Oc1ccccc1CNc1ccccn1	inactive: -9.34% [at 56.4 µM]
CC(C)CC(=O)NC(Sc1ccc(Cl)cc1)C(Cl)(Cl)Cl (stereo not drawn)	inactive: -4.62% [at 56.4 µM]
Nc1cc(N)c2nonc2c1[N+](=O)[O-]	inactive: 6.79%
Clc1ccc(Cl)c(NC2=NCC(CBr)S2)c1 (stereo not drawn)	inactive: -16.1% [at 56.4 µM]
CN1CCCC(OC(=O)C(c2ccccc2)c2ccccc2)C1 (stereo not drawn)	inactive: 13.6% [at 1.9 µM]
